Data published in patent US12339285B2, “Method for estimating therapeutic efficacy” (Konica Minolta, Inc., priority 2017, dated 2025).

Key:
ER = assay: PID fluorescent immunostaining of ER in tumor tissue of PDX mice given trastuzumab; assay type: in vivo, human; settings: PDX (SCID) mice, trastuzumab 15 mg/kg tail i.v. once every 4 days, 4 times
[1] = tested on: breast cancer cells of patients transplanted in SCID mice; assay: Tumor size in PDX mice transplanted with breast cancer cells, trastuzumab; assay type: in vivo; settings: PDX mice corresponding to breast cancer patient A; trastuzumab 15 mg/kg tail i.v. once every 4 days, 4 times
Procedure: Each of breast cancer tissues of five breast cancer patients (A to E) was subjected to exhaustive gene analysis, and biomarkers were identified on the basis of obtained genetic mutation information. The identified biomarkers (specific biomarkers) were HER2 and ER. […] The volume of tumor was measured before and after administration, and a tissue section (tumor tissue) was collected from each of the killed mice at each time point before initial administration and after 1 week, 2 weeks, 3 weeks, and 4 weeks from initial administration. Each of the collected tissue sections was subjected to formalin fixation and paraffin embedding according to conventional methods, and was further sliced to prepare two sample slides per mouse killed at each time point.

trastuzumab
PID score (ER) (ER; breast cancer patient A, 1 week after administration): 320 | PID score (ER) (ER; breast cancer patient A, 3 weeks after administration): 180 | PID score (ER) (ER; breast cancer patient A, 4 weeks after administration): 180 | PID score (ER) (ER; breast cancer patient B, 1 week after administration): 440 | PID score (ER) (ER; breast cancer patient B, 2 weeks after administration): 400 | PID score (ER) (ER; breast cancer patient B, 3 weeks after administration): 250 | PID score (ER) (ER; breast cancer patient C, 1 week after administration): 320 | PID score (ER) (ER; breast cancer patient C, 4 weeks after administration): 150 | PID score (ER) (ER; breast cancer patient D, 1 week after administration): 570 | PID score (ER) (ER; breast cancer patient D, 2 weeks after administration): 350 | PID score (ER) (ER; breast cancer patient E, 1 week after administration): 390 | PID score (ER) (ER; breast cancer patient E, 2 weeks after administration): 390 | PID score (ER) (ER; breast cancer patient E, 3 weeks after administration): 390 | PID score (ER) (ER; breast cancer patient E, 4 weeks after administration): 350 | size of tumor [1]: reduced
